This note sets out measurements from BindingDB's records for doi:10.1046/j.1471-4159.2000.0752590.x (F. Hoffmann-La Roche, 2000).

Chains of the proteins cited; added tags and fusions are not shown. Lines headed by an entry give the natural chain unless they say otherwise; changes in a name come on top.
UniProt Q13255: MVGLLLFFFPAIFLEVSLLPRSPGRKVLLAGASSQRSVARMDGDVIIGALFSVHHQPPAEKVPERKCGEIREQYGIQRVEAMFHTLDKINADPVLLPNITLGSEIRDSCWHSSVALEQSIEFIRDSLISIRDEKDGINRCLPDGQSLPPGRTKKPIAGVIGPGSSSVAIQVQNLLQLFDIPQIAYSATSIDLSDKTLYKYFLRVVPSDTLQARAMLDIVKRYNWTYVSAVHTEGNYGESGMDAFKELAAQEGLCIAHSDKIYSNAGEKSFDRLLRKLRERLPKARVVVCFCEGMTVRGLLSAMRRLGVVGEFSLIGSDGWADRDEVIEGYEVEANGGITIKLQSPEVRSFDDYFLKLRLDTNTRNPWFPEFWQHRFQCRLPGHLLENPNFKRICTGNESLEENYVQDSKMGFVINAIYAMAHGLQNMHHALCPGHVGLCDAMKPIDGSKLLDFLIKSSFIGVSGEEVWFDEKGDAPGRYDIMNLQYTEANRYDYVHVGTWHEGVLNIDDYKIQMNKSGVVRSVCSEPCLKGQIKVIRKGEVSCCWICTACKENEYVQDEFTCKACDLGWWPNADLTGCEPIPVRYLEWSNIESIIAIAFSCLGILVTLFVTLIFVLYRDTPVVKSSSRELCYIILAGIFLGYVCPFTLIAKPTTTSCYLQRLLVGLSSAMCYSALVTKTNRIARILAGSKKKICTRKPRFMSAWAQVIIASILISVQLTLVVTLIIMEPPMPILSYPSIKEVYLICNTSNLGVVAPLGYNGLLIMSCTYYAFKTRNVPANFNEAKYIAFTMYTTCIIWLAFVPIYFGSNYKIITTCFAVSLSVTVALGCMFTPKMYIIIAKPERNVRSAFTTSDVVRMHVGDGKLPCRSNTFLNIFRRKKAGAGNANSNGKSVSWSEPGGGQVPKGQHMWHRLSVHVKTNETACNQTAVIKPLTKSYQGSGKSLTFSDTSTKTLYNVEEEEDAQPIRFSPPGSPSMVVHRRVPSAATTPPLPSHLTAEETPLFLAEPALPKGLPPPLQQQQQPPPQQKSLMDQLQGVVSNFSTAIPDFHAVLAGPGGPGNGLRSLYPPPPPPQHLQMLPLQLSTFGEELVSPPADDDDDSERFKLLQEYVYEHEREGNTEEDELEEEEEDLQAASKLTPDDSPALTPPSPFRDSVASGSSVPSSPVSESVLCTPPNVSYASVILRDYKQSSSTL

This assay concerns the target Metabotropic glutamate receptor 1 (Homo sapiens, UniProt Q13255).

For the molecule `N[C@@]1(C(=O)O)CC[C@H](C(=O)O)C1` [1S, 3R-ACPD], the Ki was determined as 3.2 µM.

By Ki is commonly meant the dissociation constant of the complex between target and ligand, obtained from inhibition or displacement.
